{
  "source": "paper PMC5974779",
  "about": "“Prediction of Drug-Induced Hepatotoxicity Using Long-Term Stable Primary Hepatic 3D Spheroid Cultures in Chemically Defined Conditions” (Toxicological Sciences, 2018)",
  "key": {"[1]": {"test_system": "primary human hepatocytes (PHH) 3D spheroids"}, "[2]": {"test_system": "PHH spheroids (hanging-drop)", "settings": "cited from earlier work"}},
  "data": [
    {"smiles": "CN(CCOc1ccc(CC2SC(=O)NC2=O)cc1)c1ccccn1", "note": "(stereo not drawn) [Rosiglitazone]", "values": [
      {"measurement": "Chemically defined spheroids (this study) 20x", "setting": "[1]", "value": "Negative"},
      {"measurement": "hepatotoxicity evaluation in CD-spheroids", "setting": "[1]", "value": "did not indicate any hepatic liabilities"},
      {"measurement": "hepatotoxicity classification in hanging-drop PHH spheroids", "setting": "[2]", "value": "flagged as hepatotoxic"}
    ]}
  ]
}
